# Laboratory results reported in patent US9388136B2, “Tert-butyl N-[2-{4-[6-amino-5-(2,4-difluorobenzoyl)-2-oxopyridin-1(2H)-yl]-3,5-difluorophenyl}ethyl]-L-alaninate or a salt, hydrate or solvate thereof” (Chroma Therapeutics Ltd., priority 2012, dated 2016).
# Protein sequences, listed by entry. Tags and fused reporters are not part of them.
# UniProt Q16539, whole entry: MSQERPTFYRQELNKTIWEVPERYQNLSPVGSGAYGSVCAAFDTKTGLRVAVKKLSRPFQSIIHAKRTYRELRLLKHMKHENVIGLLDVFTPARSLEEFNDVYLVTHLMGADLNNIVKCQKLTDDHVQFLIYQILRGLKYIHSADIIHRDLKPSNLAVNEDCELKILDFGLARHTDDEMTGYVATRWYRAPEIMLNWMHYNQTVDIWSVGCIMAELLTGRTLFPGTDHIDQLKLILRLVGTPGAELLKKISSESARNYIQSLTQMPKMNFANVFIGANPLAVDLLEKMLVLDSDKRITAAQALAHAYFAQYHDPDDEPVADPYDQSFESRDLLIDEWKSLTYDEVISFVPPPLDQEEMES
# Read-outs that look alike come from different tables or passages of the source.
# Biological target: p38 MAP Kinase a (Homo sapiens (Human), UniProt Q16539)
# Experiment: p38 MAP kinase enzyme assay (radiometric filter-binding)
# Type: biochemical
# Description: The ability of compounds to inhibit p38 MAP a Kinase activity was measured in an assay performed by Upstate (Dundee UK). In a final reaction volume of 25 μL, p38 MAP Kinase a (5-10 mU) is incubated with 25 mM Tris pH 7.5, 0.002 mMEGTA, 0.33 mg/mL myelin basic protein, 10 mM MgAcetate and [g-33p-ATP] (specific activity approx. 500 cpm/pmol, concentration as required). The reaction is initiated by the addition of the MgATP mix. After incubation for 40 minutes at room temperature, the reaction is stopped by the addition of 5 μL of a 3% phosphoric acid solution. 10 μL of the reaction is then spotted onto a P30 filtermat and washed three times for 5 minutes in 75 mM phosphoric acid and once in methanol prior to drying and scintillation counting.
# Duplicate data points are generated from a 1/3 log dilution series of a stock solution in DMSO. Nine dilutions steps are made from a top concentration of 10 μM, and a ‘no compound’ blank is included. The standard radiometric filter-binding assay is performed at an ATP concentration at, or close to, the Km. Data from scintillation counts are collected and subjected to free-fit analysis by Prism software.
compound,measurement,setting,value
"CC(C)(C)OC(=O)[C@@H](NCCc1cc(F)c(-n2c(N)c(C(=O)c3ccc(F)cc3F)ccc2=O)c(F)c1)c1ccccc1 [tert-butyl (2S)-[(2-{4-[6-amino-5-(2,4-difluoro-benzoyl)-2-oxopyridin-1(2H)-yl]-3,5-difluorophenyl}ethyl)amino] (phenyl)acetate]",IC50,"corresponding acid (hydrolysis product of the named ester) tested, read-out: B—acid enzyme assay (p38 kinase A (invitrogen)), IC50",1 nM
same,IC50,"ester tested, read-out: A—ester enzyme assay (p38 kinase A (invitrogen)), IC50",44 nM
